The numbers were not newly measured in patent publication US20240189317A1, “ANTIVIRAL COMPOSITIONS AND METHODS” (AI Therapeutics, Inc., priority 2021, published 2024), which cites them from elsewhere.

The data set concerns basal and insulin-activated 2-deoxyglucose uptake. The settings on record: read-out: IC50, inhibition of basal and insulin-activated 2-deoxyglucose uptake; adipocytes; cited from earlier work.

For the compound `Nc1ccc(C(=O)Nc2cccc(-c3nc(N4CCOCC4)c4oc5ncccc5c4n3)c2)cn1` [YM-201636, 6-amino-N-(3-(4-morpholinopyrido[3′,2′:4,5]furo[3,2-d]pyrimidin-2-yl)phenyl)nicotinamide], the half-maximal inhibitory concentration (IC50) was 54 nM.
